Test results: ChEMBL document CHEMBL1123262, “Nonquaternary cholinesterase reactivators. 3. 3(5)-Substituted 1,2,4-oxadiazol-5(3)-aldoximes and 1,2,4-oxadiazole-5(3)-thiocarbohydroximates as reactivators of organophosphonate-inhibited eel and human acetylcholinesterase in vitro” (1986)
“And” between values parts separate entries of the source, which are not always exact repeats. Equal values may be shown once.

Protein sequences, listed by entry. Tags and fused reporters are not part of them. Residues count along the entry.
UniProt P22303, 32-614 limits assumed: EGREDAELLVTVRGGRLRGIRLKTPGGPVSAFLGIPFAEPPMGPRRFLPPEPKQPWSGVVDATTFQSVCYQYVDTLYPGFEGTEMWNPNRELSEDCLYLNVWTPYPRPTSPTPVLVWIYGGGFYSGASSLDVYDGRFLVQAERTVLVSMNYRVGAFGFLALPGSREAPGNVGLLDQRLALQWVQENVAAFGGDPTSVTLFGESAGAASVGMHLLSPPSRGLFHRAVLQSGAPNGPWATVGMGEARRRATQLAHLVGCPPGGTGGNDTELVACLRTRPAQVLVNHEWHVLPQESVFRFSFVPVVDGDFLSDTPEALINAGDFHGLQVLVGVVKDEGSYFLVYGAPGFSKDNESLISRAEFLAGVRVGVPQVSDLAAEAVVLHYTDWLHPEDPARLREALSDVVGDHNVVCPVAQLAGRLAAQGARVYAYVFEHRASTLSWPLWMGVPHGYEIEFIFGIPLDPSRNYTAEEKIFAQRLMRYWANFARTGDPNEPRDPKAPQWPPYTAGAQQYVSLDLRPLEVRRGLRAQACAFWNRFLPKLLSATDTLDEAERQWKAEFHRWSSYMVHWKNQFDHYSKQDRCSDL
UniProt O42275, 24-633 limits assumed: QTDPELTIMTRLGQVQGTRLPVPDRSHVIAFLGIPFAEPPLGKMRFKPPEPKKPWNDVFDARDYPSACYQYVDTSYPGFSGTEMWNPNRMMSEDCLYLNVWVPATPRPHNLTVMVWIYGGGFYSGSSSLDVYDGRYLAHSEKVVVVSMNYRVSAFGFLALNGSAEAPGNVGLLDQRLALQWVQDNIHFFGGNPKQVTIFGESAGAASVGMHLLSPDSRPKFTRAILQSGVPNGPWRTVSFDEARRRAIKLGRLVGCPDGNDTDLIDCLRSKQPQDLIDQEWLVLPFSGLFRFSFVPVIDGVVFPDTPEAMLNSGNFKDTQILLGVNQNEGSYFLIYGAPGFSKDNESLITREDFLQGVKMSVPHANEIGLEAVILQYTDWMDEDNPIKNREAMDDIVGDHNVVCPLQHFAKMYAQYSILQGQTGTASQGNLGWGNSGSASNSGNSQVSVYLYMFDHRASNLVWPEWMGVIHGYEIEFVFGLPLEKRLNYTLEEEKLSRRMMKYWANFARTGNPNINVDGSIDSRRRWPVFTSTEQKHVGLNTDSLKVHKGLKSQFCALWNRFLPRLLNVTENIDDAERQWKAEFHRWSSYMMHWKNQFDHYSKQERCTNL

Columns and labels:
[1] = Compound as tested for the hydroxyimine methyl acid dissociation constant (pKa)
[2] = Compound was tested for the ratio of octanol / buffer partition coefficient for 0.1M, pH 7.6 phosphate buffer; settings: octanol/water
[3] = target: T1, Acetylcholinesterase (Homo sapiens, UniProt P22303); experiment: Reactivation of human acetylcholinesterase
[4] = target: T2, Acetylcholinesterase (Electrophorus electricus, UniProt O42275); experiment: In vitro reversible inhibition of eel acetylcholinesterase.
[5] = target: T2, Acetylcholinesterase; experiment: Compound was tested for the concentration required for reversible inhibition of eel acetylcholinesterase
[6] = target: T1, Acetylcholinesterase; experiment: Compound was tested for the concentration required for reversible inhibition of human acetylcholinesterase.

O/N=C/c1nc(-c2cccs2)no1
pKa [1]: 8.03
logD [2]: 2.38

O/N=C/c1nc(-c2ccccc2)no1
pKa [1]: 7.94 and 8.12
logD [2]: 2.61 and 2.33

CCN(CC)CCS/C(=N\O)c1nc(-c2ccccc2)no1
IC50 [3]: 6 µM
IC50 [4]: 7.5 µM
pKa [1]: 6.32
logD [2]: 1.78

CCCCCCCCc1noc(/C=N/O)n1
pKa [1]: 8.22
logD [2]: 3

CCCCCCCCc1noc(/C(=N/O)SCCN(CC)CC)n1
pKa [1]: 6.34
IC50 [5]: 1.4 µM
logD [2]: > 3
IC50 [6]: 1 µM

Cc1noc(/C=N\O)n1
pKa [1]: 8.6

CCN(CC)CCS/C(=N\O)c1nc(-c2cccc3ccccc23)no1
IC50 [4]: 1.3 µM
pKa [1]: 6.5
logD [2]: 2.92

O/N=C/c1nc(-c2cccc3ccccc23)no1
pKa [1]: 8.05
logD [2]: > 3

CCN(CC)CCS/C(=N\O)c1nc(Cc2ccccc2)no1
IC50 [3]: 30 µM
IC50 [4]: 55 µM
pKa [1]: 6.19
logD [2]: 1.28

CC(C)(C)c1noc(/C=N/O)n1
pKa [1]: 7.91
logD [2]: 2.03

Cc1noc(/C=N/O)n1
pKa [1]: 8.11
logD [2]: 0.47

CCN(CC)CCS/C(=N\O)c1nc(-c2ccccc2)no1.Cl
pKa [1]: 7.36
logD [2]: 1.83

O/N=C/c1nc(Cc2ccccc2)no1
pKa [1]: 7.94
logD [2]: 2.18

O/N=C/c1nc(-c2ccncc2)no1
pKa [1]: 8

CCN(CC)CCS/C(=N\O)c1nc(C)no1
IC50 [3]: 90 µM
pKa [1]: 6.32
logD [2]: -0.41

CCN(CC)CCS/C(=N\O)c1nc(C(C)(C)C)no1
IC50 [4]: 99 µM
pKa [1]: 6.61
logD [2]: 1.16

CCN(CC)CC/N=C(\NO)c1nc(-c2ccccc2)no1
pKa [1]: 9.85
